# In US12130255B2, “High-throughput label-free enzymatic bioassays using DESI-MS” (priority 2020, dated 2024):
# Protein sequences, listed by entry. Tags and fused reporters are not part of them. Residues count along the entry.
# UniProt P22303, 32-614: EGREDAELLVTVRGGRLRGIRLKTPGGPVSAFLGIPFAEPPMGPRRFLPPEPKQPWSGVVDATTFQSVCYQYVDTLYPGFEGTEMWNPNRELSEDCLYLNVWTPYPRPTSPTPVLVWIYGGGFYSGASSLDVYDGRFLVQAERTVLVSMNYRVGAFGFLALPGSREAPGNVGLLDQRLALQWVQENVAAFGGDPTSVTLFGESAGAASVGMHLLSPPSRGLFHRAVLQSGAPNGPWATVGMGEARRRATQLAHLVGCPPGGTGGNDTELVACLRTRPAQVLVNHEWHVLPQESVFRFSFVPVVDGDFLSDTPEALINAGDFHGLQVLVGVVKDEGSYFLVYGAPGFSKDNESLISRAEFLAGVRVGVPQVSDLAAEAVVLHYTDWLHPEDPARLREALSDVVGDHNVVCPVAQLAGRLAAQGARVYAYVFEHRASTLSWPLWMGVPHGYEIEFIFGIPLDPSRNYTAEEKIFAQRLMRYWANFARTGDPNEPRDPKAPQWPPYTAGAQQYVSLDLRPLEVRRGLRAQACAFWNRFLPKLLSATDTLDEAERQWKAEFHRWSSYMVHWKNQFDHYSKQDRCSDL
# Biological target: acetylcholinesterase (Homo sapiens, UniProt P22303)
# Type: biochemical
smiles,measurement,setting,value
C[n+]1ccccc1C=NO [2-pralidoxime],Reactivation efficiency,,45±2% and 87±5%
same,Reactivation efficiency,"after inhibition with 0.75 μM paraoxon, 2-pralidoxime 100 μM",76±3%

# Several values for one entry are separate records, joined by “and”; a condition that tells them apart may be missing. Equal values may be shown once. Read-outs that look alike come from different tables or passages of the source.
